# Key:
# Protein sequences, listed by entry. Tags and fused reporters are not part of them.
# UniProt P23975, whole entry: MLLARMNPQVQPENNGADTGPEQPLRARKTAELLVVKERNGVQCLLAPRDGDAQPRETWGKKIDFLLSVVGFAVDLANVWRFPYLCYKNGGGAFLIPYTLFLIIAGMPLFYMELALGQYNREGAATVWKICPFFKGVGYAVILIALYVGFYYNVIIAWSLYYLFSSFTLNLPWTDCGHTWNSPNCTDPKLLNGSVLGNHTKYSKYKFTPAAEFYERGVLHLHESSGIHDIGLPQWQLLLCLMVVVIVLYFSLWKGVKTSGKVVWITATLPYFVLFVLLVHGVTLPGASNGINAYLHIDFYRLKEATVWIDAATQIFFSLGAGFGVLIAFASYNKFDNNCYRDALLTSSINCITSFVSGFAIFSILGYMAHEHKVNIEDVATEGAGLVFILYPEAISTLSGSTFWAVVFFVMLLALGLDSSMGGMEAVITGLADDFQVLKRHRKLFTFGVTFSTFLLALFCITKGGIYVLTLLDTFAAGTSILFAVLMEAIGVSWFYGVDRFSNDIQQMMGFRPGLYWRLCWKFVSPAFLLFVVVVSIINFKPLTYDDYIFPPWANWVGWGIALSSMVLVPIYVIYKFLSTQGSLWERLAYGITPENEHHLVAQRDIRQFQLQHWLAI
# [1] = target: Sodium-dependent noradrenaline transporter (Homo sapiens, UniProt P23975); experiment: Displacement of [3H]nisoxetine from human NET in COS7 cells; format: cell-based, COS-7
# trypsin = experiment: Stability against cleavage by trypsin after 24 hrs by enzymatic digestion assay; format: ADME; details: human, read-out: Activity
structure (smiles),measurement,setting,value
CC(C)C[C@@H]1NC(=O)[C@H](CCCCN)NC(=O)[C@H](Cc2ccc(O)cc2)NC(=O)CNC(=O)[C@@H]2CSSC[C@H](NC1=O)C(=O)N[C@@H](Cc1c[nH]cn1)C(=O)N1C[C@H](O)C[C@H]1C(=O)N[C@H]1CSSC[C@H](NC(=O)[C@H](C(C)C)NC(=O)CNC(=O)[C@H](CC(N)=O)NC(=O)CNC(=O)[C@H](C)NC1=O)C(=O)N2,EC50,[1],1380 nM
same,remaining at 24 h,trypsin,97%

# From ChEMBL document CHEMBL1137326, “Cyclic MrIA: a stable and potent cyclic conotoxin with a novel topological fold that targets the norepinephrine transporter” (J Med Chem, 2006)
